One experiment addresses CBP BRD protein (Homo sapiens, UniProt Q92793). The experiment is described as follows: CBP bromodomain TR-FRET inhibitory activity assay. The note with it: read-out: CBP BRD IC50, Table 3. A general note: TR-FRET usually uses a lanthanide donor and a delayed reading to cut background.
The next experiment addresses BRD4 (BD1) protein (Homo sapiens, UniProt O60885). The experiment in a line: BRD4 bromodomain TR-FRET inhibitory activity assay. The note with it: read-out: BRD4 (BD1) IC50, Table 4.

The chains behind the UniProt entries cited, without tags or fusion partners. Residues count along the entry.
UniProt Q92793, 1085-1192 limits assumed: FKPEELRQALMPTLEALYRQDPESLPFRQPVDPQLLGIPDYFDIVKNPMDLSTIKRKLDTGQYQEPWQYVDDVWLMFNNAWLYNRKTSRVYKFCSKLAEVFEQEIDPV

By IC50 is commonly meant the concentration that gives 50% inhibition. On to `Cn1cc(-c2cc3nc(C(C)(C)C)n(-c4cc(N5CC6C[C@H]5CO6)c5c(c4)n(C)c(=O)n5C)c3cc2C(F)F)cn1`, for which the concentration for half-maximal inhibition (IC50) at CBP BRD protein and on BRD4 (BD1) protein was < 500 nM throughout.
As to `Cn1cncc1-c1nc2cc(-c3ccc4c(c3)CCC(=O)N4)c(F)cc2n1-c1cc(C2CCOCC2)c2c(c1)n(C)c(=O)n2C`, the values for the IC50 at CBP BRD protein and on BRD4 (BD1) protein were < 500 nM and 500 to 5000 nM, respectively.
On the same counts, the results for `COc1cc(-c2cc3nc(C(C)(C)C)n(-c4cc(N5CC(C)(O)C5)c5c(c4)n(C)c(=O)n5C)c3cc2C(F)F)ccn1` are < 500 nM and > 5000 nM.
The corresponding values for `Cc1cnn(-c2cc3nc(C(C)(C)C)n(-c4cc(N5CC(C)(O)C5)c5c(c4)n(C)c(=O)n5C)c3cc2C(F)F)c1` are < 500 nM and > 5000 nM.
On the same counts, the results for `Cn1cc(-c2cc3nc(-c4cncn4C)n(-c4cc(N5CCOCC5)c5c(c4)n(C)c(=O)n5C)c3cc2F)cn1` are < 500 nM and > 5000 nM.
Turning to `Cc1ncc(-c2cc3nc(C(C)(C)C)n(-c4cc(N5CC(C)(O)C5)c5c(c4)n(C)c(=O)n5C)c3cc2O)s1`, the figures for the IC50 at CBP BRD protein and at BRD4 (BD1) protein were < 500 nM and > 5000 nM, respectively.
`Cc1noc(-c2cc3nc(C(C)(C)C)n(-c4cc(NC(C)C)c5c(c4)n(C)c(=O)n5C)c3cc2F)n1`: the values for the IC50 at CBP BRD protein and at BRD4 (BD1) protein were < 500 nM and > 5000 nM, respectively.
On the same counts, the results for `C[C@@H]1COCCN1c1cc(-n2c(-c3cncn3C)nc3cc(-c4cnn(C)c4)c(F)cc32)cc2c1n(C)c(=O)n2C` are < 500 nM and > 5000 nM.
For the molecule `Cn1cc(-c2cc3nc(-c4cncn4C)n(-c4cc(N5CCC5)c5c(c4)n(C)c(=O)n5C)c3cc2F)cn1`, the IC50 at CBP BRD protein was < 500 nM; at BRD4 (BD1) protein it was 500 to 5000 nM.
Consider `Cc1ncc(-c2cc3nc(C(C)(C)C)n(-c4cc(N5CCC(=O)CC5)c5c(c4)n(C)c(=O)n5C)c3cc2Cl)s1`, for which the IC50 was < 500 nM on CBP BRD protein and > 5000 nM on BRD4 (BD1) protein.
Take `CC(C)Nc1cc(-n2c(-c3cncn3C)nc3cc(-c4cnn(C)c4)c(C#N)cc32)cc2c1n(C)c(=O)n2C`: the IC50 on CBP BRD protein is < 500 nM; on BRD4 (BD1) protein it was > 5000 nM.
Regarding `Cn1cc(-c2cc3nc(C(C)(C)C)n(-c4cc(N5CC(C)(O)C5)c5c(c4)n(C)c(=O)n5C)c3cc2NC(=O)OC(C)(C)C)cn1`, the IC50 on CBP BRD protein and at BRD4 (BD1) protein was > 5000 nM in each case.
For the molecule `CNc1cc2c(cc1-c1cnn(C)c1)nc(C(C)(C)C)n2-c1cc(N2CCOCC2)c2c(c1)n(C)c(=O)n2C`, the IC50 on CBP BRD protein was < 500 nM; on BRD4 (BD1) protein, 500 to 5000 nM.
The corresponding values for `Cn1cc(-c2cc3nc(C(C)(C)C)n(-c4cc(N5CCOCC5)c5c(c4)n(C)c(=O)n5C)c3cc2C(F)(F)F)cn1` are < 500 nM and > 5000 nM.
On to `Cn1cc(-c2cc3nc(-c4cncn4C)n(-c4cc(N5CC(F)(F)C5)c5c(c4)n(C)c(=O)n5C)c3cc2C(F)F)cn1`, for which the values for the IC50 at CBP BRD protein and at BRD4 (BD1) protein were < 500 nM and > 5000 nM, respectively.
The corresponding values for `COc1ccccc1-c1nc2cc(-c3cnn(C)c3)c(C(F)F)cc2n1-c1cc(N2CC(C)(O)C2)c2c(c1)n(C)c(=O)n2C` are < 500 nM and > 5000 nM.
As for `CC(C)n1cc(-c2cc3nc(-c4cncn4C)n(-c4cc(N5CCOCC5)c5c(c4)n(C)c(=O)n5C)c3cc2F)cn1`, the IC50 on CBP BRD protein is < 500 nM; on BRD4 (BD1) protein it was > 5000 nM.
On the same counts, the results for `Cn1cc(-c2cc3nc(-c4cncn4C)n(-c4cc(N5CCC(F)(F)CC5)c5c(c4)n(C)c(=O)n5C)c3cc2F)cn1` are < 500 nM and > 5000 nM.
For the molecule `COc1ncccc1-c1nc2cc(-c3cnn(C)c3)c(C(F)F)cc2n1-c1cc(N2CC(C)(O)C2)c2c(c1)n(C)c(=O)n2C`, the IC50 at CBP BRD protein was < 500 nM; on BRD4 (BD1) protein, > 5000 nM.
Take `Cn1cc(-c2cc3nc(-c4cncn4C)n(-c4cc(N5CC(C)(O)C5)c5c(c4)n(C)c(=O)n5C)c3cc2F)cn1`: the IC50 on CBP BRD protein is < 500 nM; on BRD4 (BD1) protein it was 500 to 5000 nM.
On the same counts, the results for `Cc1ncc(-c2cc3nc(C(C)(C)C)n(-c4cc(N5CCOCC5)c5c(c4)n(C)c(=O)n5C)c3cc2C(F)(F)F)s1` are < 500 nM and > 5000 nM.

The record behind these values is patent EP4831169A1, “NOVEL COMPOUND USED AS CBP/P300 INHIBITOR, AND PHARMACEUTICAL COMPOSITION FOR PREVENTING OR TREATING CANCER, INFLAMMATORY DISORDERS, OR AUTOIMMUNE DISEASES COMPRISING SAME AS ACTIVE INGREDIENT” (dated 2026).
